Assay results published in patent US20080268451A1, “MEASUREMENT OF AN INSOLUBLE ANALYTE IN A SAMPLE” (priority 2007, published 2008).

Test system: PXR
Conditions: human primary liver cells, 0-10 μM rifampicin

Q: Which PXR transcript level (qNPA) does the source give for `CO[C@H]1/C=C/O[C@@]2(C)Oc3c(C)c(O)c4c(O)c(c(/C=N/N5CCN(C)CC5)c(O)c4c3C2=O)NC(=O)/C(C)=C\C=C\[C@H](C)[C@H](O)[C@@H](C)[C@@H](O)[C@@H](C)[C@H](OC(C)=O)[C@@H]1C` [rifampicin] here?
A: Its PXR transcript level is “suppressed”.

Q: What about the “suppression of PXR” value (qNPA (Panel a of FIG. 27)) of the same compound?
A: The value was “less than 50%”.
